BindingDB's records for 11831902

Target: Carboxylic ester hydrolase (Equus caballus, UniProt Q9N1N9)
Assay: Inhibitory activity against Butyrylcholinesterase (BChE)

SMILES: CN(C)C(=O)Oc1cccnc1CO
- Ki: 1380 µM
